Measurements reported in ChEMBL document CHEMBL2346593, “Novel adamantyl cannabinoids as CB1 receptor probes” (J Med Chem, 2013).

Amino acid sequences for entries named in this document (tags omitted).
UniProt P20272, whole entry: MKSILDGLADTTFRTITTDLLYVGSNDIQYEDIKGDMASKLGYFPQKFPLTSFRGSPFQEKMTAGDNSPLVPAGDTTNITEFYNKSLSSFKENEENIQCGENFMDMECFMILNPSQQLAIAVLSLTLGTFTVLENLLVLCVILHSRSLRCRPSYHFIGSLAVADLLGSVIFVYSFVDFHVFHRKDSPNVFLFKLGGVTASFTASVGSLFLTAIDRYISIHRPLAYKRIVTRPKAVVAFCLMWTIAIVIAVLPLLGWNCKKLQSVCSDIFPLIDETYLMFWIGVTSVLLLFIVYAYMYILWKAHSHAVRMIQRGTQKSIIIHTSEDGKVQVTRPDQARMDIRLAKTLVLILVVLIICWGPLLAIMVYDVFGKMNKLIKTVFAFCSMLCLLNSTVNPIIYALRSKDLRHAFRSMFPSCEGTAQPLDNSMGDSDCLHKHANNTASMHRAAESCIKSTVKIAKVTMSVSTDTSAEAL

Legend:
[1] = Selectivity ratio of Ki for mouse CB2 receptor to Ki for rat CB1 receptor
[2] = Selectivity ratio of Ki for human CB2 receptor to Ki for rat CB1 receptor
Cannabinoid receptor 1 = Cannabinoid receptor 1 (Rattus norvegicus, UniProt P20272); test: Displacement of [3H]CP-55940 from rat CB1 receptor expressed in rat brain membrane by competitive binding assay; assay type: cell membranes
Summary of the method: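 Competition-equilibrium binding against [3H]CP-55,940 in rat brain membranes (CB1), mouse spleen membranes (mCB2), or membranes of HEK293 cells expressing hCB2. IC50 was obtained by nonlinear regression and converted to Ki. Ki is the mean of three independent experiments, each run in duplicate.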

SMILES	Ratio Ki [1]	Ratio Ki [2]	Ki (Cannabinoid receptor 1) [nM]
CC1(C)Oc2cc(C34CC5CC(CC(C5)C3)C4)cc(O)c2[C@@H]2C[C@H](O)CC[C@H]21	1.6	1.7	–
CC1(C)Oc2cc(C34CC5CC(CC(C5)C3)C4)cc(O)c2[C@@H]2CC(=O)CC[C@H]21	1.4	1.9	176
CC1=CC[C@@H]2[C@@H](C1)c1c(O)cc(C34CC5CC(CC(C5)C3)C4)cc1OC2(C)C	7.6	–	–
CC1(C)Oc2cc(C34CC5CC(CC(C5)C3)C4)cc(O)c2[C@@H]2C[C@@H](O)CC[C@H]21	1.7	4.6	–
